Data published in patent US20250306034A1, “Detection of Liver Disease” (Owlstone Medical Limited, priority 2022, published 2025).

Chains of the proteins cited; added tags and fusions are not shown.
UniProt O60218, whole entry: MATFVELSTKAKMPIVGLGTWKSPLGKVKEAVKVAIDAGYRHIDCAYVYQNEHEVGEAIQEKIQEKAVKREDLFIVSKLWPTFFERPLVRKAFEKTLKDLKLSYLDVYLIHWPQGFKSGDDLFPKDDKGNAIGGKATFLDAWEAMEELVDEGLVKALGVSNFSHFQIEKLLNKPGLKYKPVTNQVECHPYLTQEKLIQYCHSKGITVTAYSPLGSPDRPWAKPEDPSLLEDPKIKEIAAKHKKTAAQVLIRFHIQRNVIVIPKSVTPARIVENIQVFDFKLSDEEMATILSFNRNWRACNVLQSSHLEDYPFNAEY

Biological target: AKR1B10 (Homo sapiens, UniProt O60218)
Conditions: cancer cell line overexpressing AKR1B10

bioproduct generation after ablation of AKR1B10 or treatment of the cells with AKRs inhibitors: reduced or absent bioproduct generation
SMILES: CC(C)=CCCC(C)=CC=O [citral]
